Source: ChEMBL document CHEMBL1121803, “4-aryl-4-aminocyclohexanones and their derivatives, a novel class of analgesics. 3. m-Hydroxyphenyl derivates” (1981)

Key:
[1] = species on record: Mus musculus; assay: Antagonistic activity by measuring blockade of morphine-induced elevation of tail flick latency in CF-1 female mice
[2] = species on record: Mus musculus; assay: Analgesic activity test by employing HCl writhing procedure in CF-1 female mice
[3] = species on record: Mus musculus; assay: Analgesic activity test by employing tail-flick procedure in CF-1 female mice
[4] = species on record: Mus musculus; assay: Analgesic activity test by employing tail-pinch procedure in CF-1 female mice

| SMILES | ED50 [1] [mg/kg] | ED50 [2] [mg/kg] | ED50 [3] [mg/kg] | ED50 [4] [mg/kg] |
| --- | --- | --- | --- | --- |
| CN(C)C1(c2cccc(O)c2)CCC(O)(CCc2ccccc2)CC1 (configuration not stated) | > 100 |  |  |  |
| C=CCN(C)C1(c2cccc(O)c2)CCC2(CC1)OCCO2 |  | > 200 | > 200 | > 200 |
| CN(CC1CC1)C1(c2cccc(O)c2)CCC2(CC1)OCCO2 |  | > 100 | > 100 | > 100 |
